These are literature values, as cited in patent publication US12343403B2, “Targeted ligand-payload based drug delivery for cell therapy” (Purdue Research Foundation, priority 2017, dated 2025).

For the data set the following is noted: scFv against FITC; cited from earlier work.

Turning to 4D5Flu: scFv against FITC, SEQ ID NO:20, the Kd is 0.01 µM.

For orientation: Kd means the concentration at which binding is half-saturated.
